In PubChem BioAssay AID624167 (Sanford-Burnham Center for Chemical Genomics, 2012):
The entries are a selection whose mix differs from that of the whole data set.

By UniProt entry, the sequences of proteins in these tests, tags left out.
UniProt Q6IN02, whole entry, looked up: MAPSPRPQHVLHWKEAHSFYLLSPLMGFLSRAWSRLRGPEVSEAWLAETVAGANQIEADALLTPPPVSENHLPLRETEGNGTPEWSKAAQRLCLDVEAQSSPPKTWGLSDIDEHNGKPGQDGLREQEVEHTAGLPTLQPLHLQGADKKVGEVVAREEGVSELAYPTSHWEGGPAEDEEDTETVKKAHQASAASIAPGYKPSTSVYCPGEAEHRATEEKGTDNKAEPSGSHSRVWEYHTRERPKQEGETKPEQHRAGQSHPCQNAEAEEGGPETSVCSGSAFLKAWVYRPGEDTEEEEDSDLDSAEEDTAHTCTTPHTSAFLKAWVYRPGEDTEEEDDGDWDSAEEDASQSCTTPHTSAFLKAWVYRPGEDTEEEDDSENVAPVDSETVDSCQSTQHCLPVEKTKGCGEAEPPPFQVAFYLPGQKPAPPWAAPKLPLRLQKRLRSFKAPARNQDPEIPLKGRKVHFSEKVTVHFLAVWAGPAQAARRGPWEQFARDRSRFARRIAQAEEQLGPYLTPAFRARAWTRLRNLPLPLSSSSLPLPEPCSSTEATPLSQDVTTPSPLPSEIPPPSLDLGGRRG

Target: PEG-3 (UniProt Q6IN02)
Experiment: inhibition of PEG-3 promoter-driven reporter – cell-based, HeLa, luciferase, CREF/GAPDH counter-screen panel, dose response (AID 624167)
Settings: HeLa PEG-Prom luciferase reporter, overnight, CREF/GAPDH counter-screens; run 2, dose range 1, at 100 µM (top of the series)

Structure (SMILES) | inhibition [%]
O=c1[nH]c2ccccc2n1C1CCN(C(c2cccc3ccccc23)c2nnnn2C2CCCC2)CC1 (configuration not stated) | 36.6
CCCCn1nnnc1C(c1cccs1)N1CCC(n2c(=O)[nH]c3ccccc32)CC1 (configuration not stated) | 93.9
